1 compound from paper PMC7599001, “The SNAP-tag technology revised: an effective chemo-enzymatic approach by using a universal azide-based substrate” (Journal of Enzyme Inhibition and Medicinal Chemistry, 2020) can be followed below.

The target in the assay is T1, SNAP-tag® (Homo sapiens, UniProt P16455, A127T/C150S/C62A/G131K/G132T/K125A/M134L/N157G/R128A/R135S/S159E).
T1 sequence (P16455 1-182 C62A/K125A/A127T/R128A/G131K/G132T/M134L/R135S/C150S/N157G/S159E): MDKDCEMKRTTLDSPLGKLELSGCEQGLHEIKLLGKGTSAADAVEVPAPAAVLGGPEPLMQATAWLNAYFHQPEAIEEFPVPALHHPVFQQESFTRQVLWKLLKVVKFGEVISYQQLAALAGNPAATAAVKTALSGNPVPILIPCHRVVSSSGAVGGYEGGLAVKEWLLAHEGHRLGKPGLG
As to the kind of experiment: AGTs' substrate assay by competitive inhibition method with SVG (gel-imaging). The class given is biochemical. As to conditions: SVG 5 µM, enzyme 5 µM, 30 min at 25 °C. How it is done:
Competitive inhibition assay was performed as described[23]^,[38]. Briefly, by using a fixed concentration of the fluorescent SVG (5 µM) and enzymes (5 µM), an increasing amount of guanine-derivatives (0–2 mM) was added to the mixtures. The reactions were incubated for 30 min at 25 °C and 50 °C for SNAP-tag® and H^5 respectively, and loaded on SDS-PAGE. Subsequently, fluorescent bands were measured by gel-imaging on a VersaDoc 4000™ system (Bio-Rad), by applying a blue LED/530 bandpass filter. […]
We evaluated the activity of SNAP-tag® and H^5 enzymes on BGN3 and BGSN3 by the afore-mentioned IC50 method (Figure S5(A,B)) and other O^6-guanine-derivatives (Table 1).
Because most of them are non-fluorescent compounds, we performed an AGTs’ competitive inhibition assay by using the fluorescein-derivative SNAP-Vista® Green as substrate (SVG), as previously described[22–24]^,[45]. […] The presence of increasing amounts of a non-fluorescent competitor in the reaction causes a decrease of the fluorescent signals, which can be measured and plotted for the IC50 values determination[23]^,[46].

Regarding `Nc1nc(OCc2ccccc2)c2nc[nH]c2n1` [BG, O^6-benzyl-guanine], the IC50 (usually the concentration needed to halve the response being measured) turned out to be 36.8 ± 5.6 µM.
